The values that follow come from patent US11633415B2, “Compounds and methods useful for treating or preventing cancers” (priority 2017, dated 2023).

Amino acid sequences for entries named in this document (tags omitted). A change or cut given only in a name is not applied to a line headed by its entry.
UniProt P48729: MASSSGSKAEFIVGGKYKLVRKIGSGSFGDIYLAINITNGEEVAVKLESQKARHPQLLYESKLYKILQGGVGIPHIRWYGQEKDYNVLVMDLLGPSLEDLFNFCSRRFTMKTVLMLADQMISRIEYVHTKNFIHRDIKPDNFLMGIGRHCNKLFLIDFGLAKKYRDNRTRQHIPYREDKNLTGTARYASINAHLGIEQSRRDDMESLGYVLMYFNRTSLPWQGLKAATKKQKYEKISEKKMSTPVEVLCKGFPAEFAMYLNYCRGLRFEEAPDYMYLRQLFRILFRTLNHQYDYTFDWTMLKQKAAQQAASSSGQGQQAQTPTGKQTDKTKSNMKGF

For the assay, the target named is GST-tagged full-length human CK1α (Homo sapiens (Human), UniProt P48729). Description: Kinase enzymatic assay, mobility shift on LabChip system (AC50). As to conditions: mean AC50; 5 μM ATP; 1 μM Profiler Pro FL-Peptide 16 substrate. It is filed as biochemical. On the procedure:
Enzymatic assays were performed using a mobility shift assay on the LabChip system. Purified kinase protein was incubated with ATP, substrate, and assay buffer (20 mM Hepes—pH 7.5; 5 mM MgCl2, and 0.01% Triton X-100). The assay reaction was initiated with 5 μM ATP and with each compound present. Compounds were tested at the KM,ATP for the protein target (GST-tagged full-length human CK1α, available from Carna Biosciences, Japan) or over a range of ATP concentrations between 5 μM and 9 μM. […] AC50 values were determined using phosphorylated and unphosphorylated substrates.

On to “(Z)-cyclohexylmethyl 2-cyano-2-(5-phenyl-3-(piperazin-1-yl)pyrazin-2(1H)-ylidene)acetate or (Z)-cyclohexylmethyl 2-cyano-2-(6-phenyl-3-(piperazin-1-yl)pyrazin-2(1H)-ylidene)acetate”, for which the AC50 – broadly, the midpoint of the concentration-response curve, whichever way the signal moves – was determined as 0.136 µM.
